## Antibody variant affinities, Ab-14 light chain, assay B

Target peptide (SARS-CoV-2 spike, HR2 region): PDVDLGDISGINAS

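The parent was found by panning a naive human phage display library on the peptide. The variants were designed computationally from a first round of random CDR variants and then made and measured. Several design methods are mixed in this list. The assay is AlphaSeq: two haploid yeast populations carry antibody and antigen on their surface. Pairs that bind mate more often; barcode pairs of the diploids are counted by sequencing. A regression on co-assayed BCL2-family reference pairs converts the normalised counts of each replicate to an apparent Kd. There are six technical replicates.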

Ab-14 is the parent antibody, in scFv form: VH, then a (GGGGS)3 linker, then VL. The heavy chain is unchanged in all variants.
VH: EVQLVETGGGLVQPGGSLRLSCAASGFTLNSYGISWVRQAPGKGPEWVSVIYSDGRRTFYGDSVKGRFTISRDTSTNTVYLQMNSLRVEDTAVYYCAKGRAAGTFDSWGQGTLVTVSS
VL: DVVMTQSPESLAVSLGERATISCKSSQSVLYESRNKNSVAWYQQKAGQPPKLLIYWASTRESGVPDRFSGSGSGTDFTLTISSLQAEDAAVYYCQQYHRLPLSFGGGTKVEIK

Variants are written as CDR1, CDR2 and CDR3 of the light chain (limits as in the source). Parent: KSSQSVLYESRNKNSVA, WASTRES, QQYHRLPLS.
The read-out is the apparent dissociation constant on a log10 scale (nM): the lower, the stronger.
The mean shown is taken over the replicates in which the pair was detected.
"nd" marks a missing value. The strain was present, yet no cells mated with the target were sequenced in any replicate, which points to weak or no binding.
The parent sequence was in this pool as ten entries: three were never detected, three once, and four in most replicates, with averages from 0.34 to 2.37.

CDR-L1 | CDR-L2 | CDR-L3 | log10 Kd (nM), mean | detected | empty controls
KSSQSVLYESRNKNSVA | WASTRES | QQYHRSPLS | 1.68 | 3 of 6 | 0 of 18
KISQMSNFESTHINAVA | QMSTREE | QQYFRLPLS | 0.54 | 6 of 6 | 0 of 18
KISQSFLMESMNKNSVA | EASTRIW | QQYHRLPLS | 0.18 | 6 of 6 | 0 of 18
MFSQLMEYGSRYKNSIA | QASTREN | QQYHWLPLS | nd | 0 of 6 | 0 of 18
KVEQSWLYESRNKNSVA | NASTRES | QQYHRLPLS | -0.40 | 6 of 6 | 1 of 18
NMQMQQDRMQNAKQNVA | GVDMREE | QQYFRLPFL | -0.32 | 6 of 6 | 2 of 18
MISGSVMTESRLKNSVA | QTTTRES | QQYDRLPLS | 0.95 | 6 of 6 | 3 of 18
KQSQSVLMESRNCNSVA | DASTRES | QQYHRLPLS | 0.48 | 6 of 6 | 0 of 18
KIDMSLNYESHALNSIA | EEVMHTA | QQYDRLPLF | nd | 0 of 6 | 0 of 18
KLLQEVTGHSRNRNSVA | HNSTRED | QQYDRLPLS | 2.96 | 2 of 6 | 0 of 18
KSSQSVLYESRPKNSLA | WASTREM | QQYDRLPLS | 0.70 | 6 of 6 | 3 of 18
HLGMTLNTEMMKKNNVA | DLVTREN | QQYHRLPLS | 0.23 | 6 of 6 | 2 of 18
KVSQSVPYESRNKNSVA | NASTRES | QDYHRLPLS | 0.05 | 6 of 6 | 0 of 18
MISQLYNMGQFAINSVA | QASERNA | QQYDRLPLM | 1.66 | 6 of 6 | 1 of 18
KLSQLFYKESINKNNVA | EMTTRMS | QQYDRLPLS | 0.03 | 6 of 6 | 0 of 18
KLSQSQLYESRMKNSVA | NASTRED | QQYHRLPLS | 0.32 | 6 of 6 | 0 of 18
KSSNSVLYESRNSNNVA | WASTRAS | QQYDCLPLV | 2.71 | 2 of 6 | 0 of 18
KIPQATMQESVSKNSVA | ELSTRGS | QQYHRLPLS | 1.08 | 6 of 6 | 2 of 18
RMNKFMSEITEARNSVA | GAEHLAQ | QSYHRLPLS | 0.23 | 6 of 6 | 0 of 18
KFSQSWLYESRNKNSVA | GASTREV | QQYHRLPLS | -0.16 | 6 of 6 | 0 of 18
KVQQSHLYESRNKNSVA | NASQRES | QQYHRLPLS | -0.19 | 6 of 6 | 2 of 18
KLRQSTLYESRNWNSVA | DASTRES | QQYHRLPLS | 0.47 | 6 of 6 | 0 of 18
HLSQSGLYEMRNKNSVA | QASQRLQ | QQYHRLPLS | 0.15 | 6 of 6 | 1 of 18
KSSQGSLYESRNKNSVA | WASTQES | QQYHRLPLS | nd | 0 of 6 | 0 of 18

Second part, the sequence after the result:

log10 Kd (nM), mean | detected | empty controls | CDR-L1 | CDR-L2 | CDR-L3
2.23 | 5 of 6 | 0 of 18 | KSSQSVLYESRNKHSVA | WASQRED | QSYHRLPLS
1.85 | 6 of 6 | 0 of 18 | TIGHTLMQGVRNRSNVA | EVSERLN | QQYDRLPLI
0.00 | 6 of 6 | 1 of 18 | RYQMDDNIGKGARNNIA | DGAEVYR | QQYARLPLT
1.30 | 1 of 6 | 0 of 18 | KSEQQVLYESRNKNSVA | WASTRES | QQYHRLPLS
0.55 | 2 of 6 | 0 of 18 | KISQSVLYESTNKNSVA | WASTRES | PQYHRLPLS
0.41 | 6 of 6 | 0 of 18 | KQSQSVLVESVNKNSVA | DASTRES | QQYHRLPLS
0.56 | 6 of 6 | 0 of 18 | MLSLNLHDMDANMNNVA | EMNQLTA | QDYHRLPLH
-0.19 | 6 of 6 | 1 of 18 | HSSPSYLYESRNKNNVA | NASTRES | QQYHRLPLS
-0.12 | 6 of 6 | 0 of 18 | KLSQSELYESRNKNSVA | NASTREM | QQYHRLPLS
0.82 | 6 of 6 | 0 of 18 | KTSQSVKFESRNKNSVA | DASTRES | QQYHRLPLS
2.42 | 6 of 6 | 0 of 18 | MVNTNLFHQAQRDNSIA | EADMVAA | QDYDRLPLI
-0.11 | 6 of 6 | 3 of 18 | KTSQGVLYESRNKNSVA | GASVRES | QQYHRLPLS
0.27 | 6 of 6 | 3 of 18 | KLDQWQDYESRNKASVA | QASTREQ | QQYHRLPLS
nd | 0 of 6 | 0 of 18 | KSSQNVEGMSPNKNSVA | WASTRES | QQGHCFPLS
1.34 | 6 of 6 | 1 of 18 | KSSQSVLQESVNKNSVA | AASTRES | GQYHRLPLS
0.54 | 6 of 6 | 0 of 18 | QIDSFYQHGTDQNQAMA | DVTMRDQ | QQYSRLPLS
0.09 | 6 of 6 | 0 of 18 | KSQQSVPYESRNKNSVA | EASTRES | QQYHRLPLS
2.00 | 6 of 6 | 0 of 18 | KSSQSVLYESRNQNSIA | WASTRES | QQYHRLPLS
-0.32 | 6 of 6 | 0 of 18 | KSSQSQLYSSRNKNSVA | GASTRES | QQYHRLTLS
0.75 | 6 of 6 | 1 of 18 | HITYGMNVAGRHSSSIA | QAETREK | QQYDRLPLS
0.36 | 6 of 6 | 0 of 18 | KMSQSWLGEDWNKNSVA | EASQRES | QQYHRLPLS
0.13 | 6 of 6 | 2 of 18 | ALSQSMDMTSRNKNSVA | DLETREN | QQYHRLPLS
-0.29 | 6 of 6 | 2 of 18 | QLSQSVLYESRNKNSVA | EASTRES | QQYHRLPLS
2.26 | 2 of 6 | 0 of 18 | SLSLSMAFLSRNKNSVA | ENSTRES | QQYHRLPLL

Picked from the list: the 8 lowest averages where every replicate gave a value.

CDR-L1 | CDR-L2 | CDR-L3 | log10 Kd (nM), mean | detected | empty controls
KVEQSWLYESRNKNSVA | NASTRES | QQYHRLPLS | -0.40 | 6 of 6 | 1 of 18
KSSQSQLYSSRNKNSVA | GASTRES | QQYHRLTLS | -0.32 | 6 of 6 | 0 of 18
NMQMQQDRMQNAKQNVA | GVDMREE | QQYFRLPFL | -0.32 | 6 of 6 | 2 of 18
QLSQSVLYESRNKNSVA | EASTRES | QQYHRLPLS | -0.29 | 6 of 6 | 2 of 18
HSSPSYLYESRNKNNVA | NASTRES | QQYHRLPLS | -0.19 | 6 of 6 | 1 of 18
KVQQSHLYESRNKNSVA | NASQRES | QQYHRLPLS | -0.19 | 6 of 6 | 2 of 18
KFSQSWLYESRNKNSVA | GASTREV | QQYHRLPLS | -0.16 | 6 of 6 | 0 of 18
KLSQSELYESRNKNSVA | NASTREM | QQYHRLPLS | -0.12 | 6 of 6 | 0 of 18

The authors' rule: three or more of the six replicates give a measured affinity, fewer mean a poor binder.
Nonspecific signal, from three strains lacking the peptide, appeared in 4% of pairings of all light chain designs, centred on 2.64 (5% of these signals below 1.59); values are not corrected for it. Also given: how often the same scFv was detected with the empty control strains.
A sequence measured in both rounds can read differently, since the two assays cover different ranges.

From the AlphaSeq antibody data of Li et al. 2023 (doi:10.1038/s41467-023-39022-2), copy in the FLAb collection.